By UniProt entry, the sequences of proteins in these tests, tags left out.
UniProt P01111, whole entry: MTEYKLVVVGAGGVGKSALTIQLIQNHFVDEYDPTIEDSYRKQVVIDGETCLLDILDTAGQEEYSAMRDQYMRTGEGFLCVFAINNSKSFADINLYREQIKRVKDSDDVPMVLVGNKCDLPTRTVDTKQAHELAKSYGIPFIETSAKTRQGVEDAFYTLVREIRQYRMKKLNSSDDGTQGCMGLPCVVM
UniProt P01112, whole entry: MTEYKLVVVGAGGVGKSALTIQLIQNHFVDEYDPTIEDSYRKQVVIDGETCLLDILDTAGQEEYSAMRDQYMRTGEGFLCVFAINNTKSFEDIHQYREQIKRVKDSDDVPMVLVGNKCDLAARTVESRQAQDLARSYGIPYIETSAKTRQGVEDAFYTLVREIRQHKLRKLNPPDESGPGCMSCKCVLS
UniProt P01116, whole entry: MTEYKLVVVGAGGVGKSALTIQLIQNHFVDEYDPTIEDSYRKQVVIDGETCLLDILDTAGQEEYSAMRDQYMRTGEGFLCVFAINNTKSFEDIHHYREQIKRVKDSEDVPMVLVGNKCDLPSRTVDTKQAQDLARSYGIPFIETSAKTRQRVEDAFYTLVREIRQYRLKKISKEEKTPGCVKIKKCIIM

According to patent US20240158446A1, “CYCLIC COMPOUND HAVING SELECTIVE INHIBITORY ACTION ON KRAS OVER HRAS AND NRAS” (CHUGAI SEIYAKU KABUSHIKI KAISHA, priority 2021, published 2024):

How the values were obtained:
[1] = test system: human lung cancer strain NCI-H441; test: NCI-H441 cell proliferation inhibitory activity (CellTiter-Glo); conditions: read-out: NCI-H441 IC50, 4 days;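 note: cell proliferation inhibition after four days measured by CellTiter-Glo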
[2] = target: GDP-bound NRAS wild-type protein (Homo sapiens, UniProt P01111); test: Binding to NRAS by surface plasmon resonance (SPR), Single Cycle Kinetics; conditions: ratio of KD for GDP-bound NRAS wild-type protein to KD for KRAS
[3] = target: GDP-bound HRAS wild-type protein (Homo sapiens, UniProt P01112); test: Binding to HRAS by surface plasmon resonance (SPR), Single Cycle Kinetics; conditions: ratio of KD for GDP-bound HRAS wild-type protein to KD for KRAS
[4] = target: GDP-bound KRAS wild-type protein (Homo sapiens, UniProt P01116); test: Binding to KRAS by surface plasmon resonance (SPR), Single Cycle Kinetics; conditions: read-out: KRAS KD

Row | SMILES | IC50 [1] [nM] | Kd [4] [nM] | NRAS/KRAS (KD ratio) [2] | HRAS/KRAS (KD ratio) [3]
1 | CC[C@H](C)[C@@H]1NC(=O)[C@H](CC(C)C)N(C)C(=O)C[C@@H](C(=O)N(C)C)N(C)C(=O)[C@H](C2CCCC2)N(C)C(=O)C2(CCC2)N(C)C(=O)[C@@H]2C[C@@H](C)CN2C(=O)[C@H](CCc2cc(F)c(C(F)(F)F)c(F)c2)NC(=O)CN(C)C(=O)[C@H](Cc2ccc(C)cc2)N2CC/C=C\C[C@@H](C2=O)N(C)C(=O)CN(C)C1=O | 9.6 | – | – | –
2 | CC[C@H](C)[C@@H]1NC(=O)[C@H](CC)N(C)C(=O)C[C@@H](C(=O)N(C)C)N(C)C(=O)[C@H](C2CCCC2)N(C)C(=O)C2(CCC2)N(C)C(=O)[C@@H]2C[C@@H](C)CN2C(=O)[C@H](CCc2cc(F)c(C(F)(F)F)c(F)c2)NC(=O)CN(C)C(=O)[C@H](Cc2ccc(C)cc2)N2CC/C=C\C[C@@H](C2=O)N(C)C(=O)CN(C)C1=O | – | – | A (a compound having 10 or more and less than 20 is denoted as A) | B (a compound having 3 or more and less than 10 is denoted as B)
3 | CCCOC[C@H]1C(=O)N[C@@H]([C@@H](C)CC)C(=O)N(C)CC(=O)N(C)[C@H]2C/C=C\CCN(C2=O)[C@@H](Cc2ccc(C(F)(F)F)cc2)C(=O)N(C)CC(=O)N[C@@H](CCc2cc(F)c(C(F)(F)F)c(F)c2)C(=O)N2C[C@@H](C)C[C@H]2C(=O)NC2(CCC2)C(=O)N(C)[C@@H](C2CCCC2)C(=O)N(C)[C@H](C(=O)N(C)CC)CC(=O)N1C | 7.8 | – | – | –
4 | CCCN1C(=O)[C@@H]2CCN2C(=O)[C@H](C)N(C)C(=O)[C@H]([C@@H](C)CC)NC(=O)[C@H](CC(C)C)N(C)C(=O)C[C@@H](C(=O)N2CCOCC2)N(C)C(=O)[C@H](C2CCCC2)N(C)C(=O)C2(CCC2)NC(=O)[C@@H]2CCCN2C(=O)[C@H](CCc2ccc(C(F)(F)F)c(Cl)c2)NC(=O)CN(C)C(=O)[C@@H]1COCCC(C)C | – | – | C (A compound having a KD ratio of 0.1 or more and less than 3 is denoted as C) | C (A compound having a KD ratio of 0.1 or more and less than 3 is denoted as C)
5 | CCCC[C@H]1C(=O)N[C@@H]([C@@H](C)CC)C(=O)N(C)CC(=O)N(C)[C@H]2C/C=C\CCN(C2=O)[C@@H](Cc2ccc(C(F)(F)F)cc2)C(=O)N(C)CC(=O)N[C@@H](CCc2cc(F)c(Cl)c(F)c2)C(=O)N2C[C@H](OCC)C[C@H]2C(=O)NC2(CC(C)(C)C2)C(=O)N(C)[C@@H](C2CCCC2)C(=O)N(C)[C@H](C(=O)N(C)C)CC(=O)N1C | 6.2 | – | – | –
6 | CCO[C@@H]1C[C@H]2C(=O)NC3(CC(C)(C)C3)C(=O)N(C)[C@@H](C3CCCC3)C(=O)N(C)[C@H](C(=O)N(C)C)CC(=O)N(C)[C@@H](CC(C)C)C(=O)N[C@@H]([C@@H](C)CC)C(=O)N(C)CC(=O)N(C)[C@H]3C/C=C\CCN(C3=O)[C@@H](Cc3ccc(C(F)(F)F)cc3)C(=O)N(C)CC(=O)N[C@@H](CCc3ccc(C(F)(F)F)cc3F)C(=O)N2C1 | 41.7 | – | – | –
7 | CCCN1C(=O)[C@@H]2CCN2C(=O)[C@H](C)N(C)C(=O)[C@H]([C@@H](C)CC)NC(=O)[C@H](CC(C)C)N(C)C(=O)C[C@@H](C(=O)N(C)C)N(C)C(=O)[C@H](C2CCCC2)N(C)C(=O)C2(CCC2)NC(=O)[C@@H]2CCCN2C(=O)[C@H](CCc2ccc(C(F)(F)F)c(Cl)c2)NC(=O)CN(C)C(=O)[C@@H]1COCCC(C)C | – | 0.6 | C (A compound having a KD ratio of 0.1 or more and less than 3 is denoted as C) | C (A compound having a KD ratio of 0.1 or more and less than 3 is denoted as C)

More lines, main results first:

Row | IC50 [1] [nM] | Kd [4] [nM] | SMILES | NRAS/KRAS (KD ratio) [2] | HRAS/KRAS (KD ratio) [3]
8 | 28.3 | – | CCO[C@@H]1C[C@H]2C(=O)NC3(CCC3)C(=O)N(C)[C@@H](C3CCCC3)C(=O)N(C)[C@H](C(=O)N3CCOCC3)CC(=O)N(C)[C@@H](CC(C)C)C(=O)N[C@@H]([C@@H](C)CC)C(=O)N(C)CC(=O)N(C)[C@H]3CC4OC4CCN(C3=O)[C@@H](Cc3ccc(C(F)(F)F)cc3)C(=O)N(C)CC(=O)N[C@@H](CCc3ccc(C(F)(F)F)c(Cl)c3)C(=O)N2C1 (stereo partly drawn) | – | –
9 | 26.9 | 0.19 | CCC[C@H]1C(=O)N[C@@H]([C@@H](C)CC)C(=O)N(C)CC(=O)N(C)[C@H]2C/C=C\CCN(C2=O)[C@@H](Cc2ccc(C)cc2)C(=O)N(C)CC(=O)N[C@@H](CCc2ccc(C(F)(F)F)c(OC)c2)C(=O)N2C[C@H](C)C[C@H]2C(=O)NC2(CCC2)C(=O)N(C)[C@@H](C2CCCC2)C(=O)N(C)[C@H](C(=O)N(C)CC)CC(=O)N1C | A (a compound having 10 or more and less than 20 is denoted as A) | B (a compound having 3 or more and less than 10 is denoted as B)
10 | 5.1 | – | CCOC[C@H]1C(=O)N[C@@H]([C@@H](C)CC)C(=O)N(C)CC(=O)N(C)[C@H]2C/C=C\CCN(C2=O)[C@@H](Cc2ccc(C(F)(F)F)cc2)C(=O)N(C)CC(=O)N[C@@H](CCc2cc(F)c(C(F)(F)F)c(F)c2)C(=O)N2C[C@@H](C)C[C@H]2C(=O)NC2(CCC2)C(=O)N(C)[C@@H](C2CCCC2)C(=O)N(C)[C@H](C(=O)N(C)CC)CC(=O)N1C | – | –
11 | 41.9 | – | CCO[C@@H]1C[C@H]2C(=O)NC3(CCC3)C(=O)N(C)[C@@H](C3CCCC3)C(=O)N3CCC[C@@H]3CC(=O)N(C)[C@@H](CC)C(=O)N[C@@H]([C@@H](C)CC)C(=O)N(C)CC(=O)N(C)[C@H]3C/C=C\CCN(C3=O)[C@@H](Cc3ccc(C(F)(F)F)cc3)C(=O)N(C)CC(=O)N[C@@H](CCc3ccc(C(F)(F)F)c(OC)c3)C(=O)N2C1 | – | –
